Experimental data as given in patent US20160051704A1, “MOLECULAR IMAGING PROBES FOR LUNG CANCER INTRAOPERATIVE GUIDANCE” (H. Lee Moffitt Cancer Center and Research Institute, Inc., priority 2013, published 2016).

Chains of the proteins cited; added tags and fusions are not shown. Lines headed by an entry give the natural chain unless they say otherwise; changes in a name come on top. Residues count along the entry.
UniProt P41143, 1-357 limits assumed: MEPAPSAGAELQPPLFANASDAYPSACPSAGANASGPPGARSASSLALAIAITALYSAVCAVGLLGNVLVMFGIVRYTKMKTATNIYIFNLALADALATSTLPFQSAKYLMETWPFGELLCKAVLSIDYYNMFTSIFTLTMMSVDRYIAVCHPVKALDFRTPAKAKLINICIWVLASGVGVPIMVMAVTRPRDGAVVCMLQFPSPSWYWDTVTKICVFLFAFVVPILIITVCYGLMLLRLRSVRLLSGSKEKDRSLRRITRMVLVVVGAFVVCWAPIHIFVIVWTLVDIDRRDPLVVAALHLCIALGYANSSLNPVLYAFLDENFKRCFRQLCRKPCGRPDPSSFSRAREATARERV

Biological target: T1, δOR on HCT-116/δOR cell line (Homo sapiens, UniProt P41143)
T1 construct: pcDNA-δOR15 vector containing a truncated δOR lacking the final 15 C-terminal amino acids; expressed in transfected cells
Test: In cyto time-resolved fluorescence (TRF) saturation binding assay
Method: For the competitive binding assays, HCT-116/δOR cells were plated in black wall/white bottom 96-well plates (Perkin Elmer, Cat. #6005060) at a density of 20,000 cells per well and were allowed to grow for 3 days.

Europium (Eu)-diethylenetriaminepentaacetic acid (DTPA)[D-Pen^2, L-Cys^5] enkephalin (DPLCE) [Eu-DTPA labeled DPLCE]
Kd: 51.8 nM
